From US20260382616A1, “TREATMENT METHODS FOR SUBJECTS WITH NON-SMALL CELL LUNG CANCER HAVING AN ABERRATION IN EGFR” (published 2026)

Tests used:
[1] = Phase 2b REZILIENT1 module C, safety; conditions: 45 patients, 100 mg BID
[2] = system: recurrent or metastatic NSCLC harboring EGFR ex20ins mutations; conditions: after prior platinum-containing chemotherapy (JCO 2023); cited from earlier work
EGFR = conditions: biochemical assay; cited from earlier work
[3] = system: phosphorylation of EGFR and its downstream effectors in human lung cancer xenografts harboring EGFR exon 20 insertions; assay: Pharmacodynamic marker analysis in human lung cancer xenografts; conditions: human lung cancer xenografts with EGFR ex20ins
[4] = system: EGFRs harboring T790M and exon 18 or exon 21 mutations (G719A+T790M, L861Q+T790M); conditions: cited from earlier work
[5] = Study in patients who received prior amivantamab (January 2024), safety
[6] = system: mutant EGFRs with in-frame insertion mutations in exon 20; conditions: genetically engineered cell lines / nonclinical studies, cited from earlier work
[7] = system: mutant EGFRs with mutations in exon 18 or exon 21 (G719A, G719S, G719C, E709K, E709A, L861Q); conditions: cited from earlier work
H1975insSVD = H1975insSVD xenograft, TAS6417 and/or CBDCA/pemetrexed; conditions: for Tumor volume: mean
[8] = system: tumors expressing EGFR with exon 20 insertions (V769_D770insASV, D770_N771insSVD, H773_V774insNPH); assay: In vivo antitumor efficacy, subcutaneous tumors expressing EGFR exon 20 insertions; conditions: nude mouse and/or nude rat
[9] = system: tumors expressing EGFR with exon 20 insertions (V769_D770insASV, D770_N771insSVD, H773_V774insNPH); conditions: cancer xenografts harboring EGFR ex20ins mutations; cited from earlier work
[10] = system: recurrent or metastatic NSCLC harboring EGFR ex20ins mutations; assay: Phase 1/2a study, antitumor activity; conditions: for Confirmed PR: RECIST v1.1; for Objective responses across dose levels: all doses tested
NCI-H460 cells = assay: Growth inhibition of KRAS mutant cell line NCI-H460
[11] = system: advanced EGFR ex20ins mutant NSCLC after prior amivantamab; assay: Study in patients who received prior amivantamab (January 2024), anti-tumor activity
[12] = system: mutant EGFRs with in-frame insertion mutations in exon 20; assay: Cell-based inhibition of phosphorylation of mutant EGFRs with exon 20 insertions; conditions: A763_Y764insFQEA, V769_D770insASV, D770_N771insG, D770_N771insSVD, H773_V774insNPH, H773_V774insPH
[13] = system: LXF 2478 and NCI-H1975 EGFR D770_N771insSVD cells; assay: Mechanism in NSCLC cells with EGFR exon 20 insertions
[14] = system: tumors expressing EGFR with G719A+T790M mutations; assay: In vivo antitumor efficacy, subcutaneous tumors expressing EGFR G719A+T790M; conditions: nude mouse
NCI-H23 cells = assay: Growth inhibition of KRAS mutant cell line NCI-H23
[15] = system: EGFR mutants that harbor an exon 20 insertion mutation; conditions: biochemical assay; cited from earlier work
[16] = system: mutant EGFRs L718Q+ex19del+T790M or L718Q+L858R+T790M; conditions: cell-based; cited from earlier work
[17] = Crossing of the normal rodent blood-barrier (preclinical studies)
[18] = system: NCI-H1975 EGFR D770_N771insSVD (H1975insSVD); assay: H1975insSVD xenograft after recurrence on amivantamab; conditions: TAS6417 200 mg/kg daily p.o., amivantamab-relapsed tumors
[19] = three patients with measurable target CNS lesions

For `C=CC(=O)N[C@H]1C=C(C)c2c(-c3cnc4ccccc4c3)c3c(N)ncnc3n2C1`, the “Grade 3 TRAE anemia” value [1] was 4, the “Grade 3 TRAE pneumonitis/ILD” value [1] was 3 and the “Grade 3 TRAE rash” value [1] was 3. The “Grade 4 or 5 TRAEs” value [1] was “no grade 4 or 5 TRAEs”, the TRAE anemia [1] was 24% and the TRAE dermatitis acneiform [1] was 16%. It also gave a TRAE nausea [1] of 16%, a TRAE paronychia [1] of 36% and a TRAE rash [1] of 38%. For the same molecule, the TRAE stomatitis [1] was 11%, the “Confirmed objective response rate (ORR)” value [2] was 41% and the “Inhibition of in vitro phosphorylation activity” value (EGFR) was “inhibited the in vitro phosphorylation activity”. The “Inhibition of phosphorylation of EGFR and downstream effectors in vivo” value [3] was “potent and durable in vivo inhibitory effect”, the “Inhibition of EGFRs with T790M + exon 18 or 21 mutation” value [4] was “intensive inhibition” and the “Treatment-related Grade >3 events, patient with 2 events” value ([5]; 1 patient) was “anemia and rash”. The “Treatment-related Grade >3 events, patient with 4 events” value ([5]; 1 patient) was “amylase increase, lymphocyte decrease, hypoxia, and pneumonitis”, the “Treatment-related Grade >3 events, patients with 1 event” value ([5]; 4 patients) was “folliculitis, ILD, hypertension, or rash” and the TRAE anemia ([5]; 31 patients) was 25.8%. For the same molecule, the TRAE folliculitis ([5]; 31 patients) was 12.9%, the TRAE paronychia ([5]; 31 patients) was 22.6% and the TRAE pruritis ([5]; 31 patients) was 12.9%. For the same molecule, the TRAE rash ([5]; 31 patients) was 38.7%, the TRAE stomatitis ([5]; 31 patients) was 12.9% and the “Treatment-related Grade >3 Adverse Events” value ([5]; 31 patients) was 6 patients. For the same molecule, the Safety profile ([5]; prior amivantamab) was “manageable safety profile”, the “Inhibition of intracellular phosphorylation of mutant EGFRs (ex20ins)” value ([6]; listed as CLN-081/TAS6417) was “potent inhibitor of ex20ins mutations” and the “Inhibition of intracellular phosphorylation of mutant EGFRs (ex20ins)” value ([6]; listed as zipalertinib) was “potently inhibited intracellular phosphorylation of mutant EGFRs”. The “Inhibition of phosphorylation of mutant EGFRs” value ([7]; G719A, G719S, G719C, E709K, E709A, L861Q) was “intensive cellular potency”, the “Activity compared with erlotinib and osimertinib” value ([7]; inhibition of phosphorylation, exon 18 / 21 mutants) was “higher than erlotinib and osimertinib” and the Tumor volume (H1975insSVD; Day 1, TAS6417 100 mg/kg/day po qd) was 192.4 mm^3. For the same molecule, the Tumor volume (H1975insSVD; Day 15, TAS6417 100 mg/kg/day po qd) was 322.8 mm^3, the Tumor volume (H1975insSVD; Day 22, TAS6417 100 mg/kg/day po qd) was 846.5 mm^3 and the “Tumor volume after 22 days” value (H1975insSVD; alone or in combination with CBDCA/pemetrexed) was “dramatically smaller tumor volume after 22 days”. For the same molecule, the “Tumor growth inhibition and regression” value [8] was “striking tumor growth inhibition and tumor regression effects in a dose-dependent manner”, the “Antitumor activity in vivo” value [9] was “significant antitumor activity in vivo” and the mPFS ([10]; 65 mg BID or less, 95% CI, 5 to 13) was 8 months. The “Best response PD” value ([10]; 100 mg BID (N=39)) was 1 (2.6) No. (%), the “Best response SD” value ([10]; 100 mg BID (N=39)) was 22 (56.4) No. (%) and the “Confirmed PR” value ([10]; 100 mg BID (N=39)) was 16 (41) No. (%). The mPFS ([10]; 100 mg BID, 95% CI, 5 to NC) was 12 months, the “Response of CNS target lesion, second patient” value ([10]; 100 mg, after 1 year on treatment) was “stable disease both systemically and intracranially” and the “Response of CNS target lesion, first patient” value ([10]; 100 mg, cycle 6, remained in PR at cycle 16) was “achieved both a systemic and intracranial response”. For the same molecule, the “Best response PD” value ([10]; 150 mg BID (N=11)) was 1 (9.1) No. (%), the “Best response SD” value ([10]; 150 mg BID (N=11)) was 6 (54.5) No. (%) and the “Confirmed PR” value ([10]; 150 mg BID (N=11)) was 4 (36.4) No. (%). For the same molecule, the “Response of CNS target lesion, third patient” value ([10]; 150 mg, cycle 3) was “progressed with new lesions in the CNS”, the mDOR ([10]; 12 patients at <65 mg BID) was “had not been reached” and the mDOR ([10]; 16 patients at 100 mg BID) was “had not been reached”. For the same molecule, the mPFS ([10]; all dose levels, 95% CI, 6 to 12) was 10 months, the mDOR ([10]; all dose levels, 95% CI, 6 to NC) was 10 months and the “Objective responses across dose levels” value [10] was “Objective responses were observed across the range of dose levels tested”. The “Objective responses across dose levels” value ([10]; listed as Compound 1) was “Objective responses (ORs) were observed across the full range of Compound 1 doses tested”, the ORR ([10]; far-loop insertions (n=9)) was 22% and the Tumor regression ([10]; heavily previously-treated patients) was “rapid and durable tumor regression”. The Response rate ([10]; helical region mutations (2 patients)) was 0%, the “PRs across ex20ins mutations” value ([10]; in vivo) was “PRs were observed across a spectrum of diverse epidermal growth factor receptor exon 20 insertion mutations” and the ORR ([10]; near-loop exon 20 insertions (n=52)) was 41.5%. For the same molecule, the “Best response PD” value ([10]; overall (N=73)) was 3 (4.1) No. (%), the “Best response SD” value ([10]; overall (N=73)) was 42 (57.5) No. (%) and the “Confirmed PR” value ([10]; overall (N=73)) was 28 (38.4) No. (%). The “Median time to response” value ([10]; range, 1.5-6.2) was 1.5 months, the PRs ([10]; three patients previously treated with another ex20ins-directed TKI) was “two” and the “CNS progression as best response” value [10, 19] was “one”. For the same molecule, the “Systemic and intracranial PR” value [10, 19] was “one”, the “Systemic and intracranial SD” value [10, 19] was “one” and the Response rate ([10]; unreported mutation site group (10 patients)) was 40%. The “Best response PD” value ([10]; ≤65 mg BID (N=23)) was 1 (4.3) No. (%), the “Best response SD” value ([10]; ≤65 mg BID (N=23)) was 14 (60.9) No. (%) and the “Confirmed PR” value ([10]; ≤65 mg BID (N=23)) was 8 (35) No. (%). The GI50 (NCI-H460 cells) was greater than 3000 nM, the “Unconfirmed partial response (uPR)” value ([11]; 18 evaluable patients) was 1 (5.6%) and the Median progression-free survival ([11]; human, in vivo) was “not yet estimable”. For the same molecule, the “Efficacy vs patients that progressed after platinum-based chemotherapy” value ([11]; prior amivantamab) was “efficacy similar to that of patients that progressed after platinum-based chemotherapy”, the “Inhibition of phosphorylation of mutant EGFRs” value [12] was “intensive cellular potency” and the “Caspase 3/7” value [13] was “induction of caspase 3/7”. The “Growth of NSCLC cells with EGFR exon 20 insertions” value [13] was “suppressed the growth”, the “Phosphorylation of EGFR and its downstream molecules” value [13] was “inhibition of the phosphorylation of EGFR and its downstream molecules” and the “Body weight loss, fecal abnormalities, skin abnormalities” value [14] was “not effected at a cost of body weight loss, fecal abnormalities, or skin abnormalities”. The Tumor growth inhibition ([14]; subcutaneous) was “significant tumor growth inhibition effects in a dose-dependent manner”, the GI50 (NCI-H23 cells) was greater than 3000 nM and the “Inhibition of in vitro phosphorylation activity” value [15] was “inhibited the in vitro phosphorylation activity”. The “Inhibition of phosphorylation of L718Q combination mutants” value [16] was “intensive cellular potency”, the “Crossing of normal rodent blood-barrier” value [17] was “may not efficiently cross the normal rodent blood-barrier” and the “Reduction in tumor growth vs Amivantamab” value [18] was “significant reduction in tumor growth”.

Read-outs that look alike come from different tables or passages of the source.
